Laboratory results as given in BindingDB's records for doi:10.1002/(SICI)1098-2396(199702)25:2 (University of Toronto, 1997).

Chains of the proteins cited; added tags and fusions are not shown.
UniProt P61169, whole entry: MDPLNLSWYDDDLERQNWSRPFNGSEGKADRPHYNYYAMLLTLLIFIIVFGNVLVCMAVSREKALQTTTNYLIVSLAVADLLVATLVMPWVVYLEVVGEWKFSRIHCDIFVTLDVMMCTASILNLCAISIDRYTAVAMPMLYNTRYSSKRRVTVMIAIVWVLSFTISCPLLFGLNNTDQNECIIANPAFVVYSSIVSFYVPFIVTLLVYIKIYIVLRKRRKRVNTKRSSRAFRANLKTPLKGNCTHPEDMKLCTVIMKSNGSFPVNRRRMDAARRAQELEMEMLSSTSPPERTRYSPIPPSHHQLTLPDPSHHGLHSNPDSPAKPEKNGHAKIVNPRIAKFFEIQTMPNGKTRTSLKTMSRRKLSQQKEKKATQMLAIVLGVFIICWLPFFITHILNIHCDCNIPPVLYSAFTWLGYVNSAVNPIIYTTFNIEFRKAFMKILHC

Target: D(2) dopamine receptor (Rattus norvegicus, UniProt P61169)

Ki	SMILES
300 nM	OCCN1CCN(CC/C=C2/c3ccccc3Sc3ccc(C(F)(F)F)cc32)CC1 [(cis) 2-{4-[3-(2-Trifluoromethyl-thioxanthen-9-ylidene)-propyl]-piperazin-1-yl}-ethanol(Flupentixol)]
427 nM	CNCC(O)c1ccc(O)c(O)c1 (configuration not stated) [EPINEPHRINE]
